Data reported in paper PMC4011867 (PLoS ONE, 2014).

System: A. pisum native nAChRs, [125I]-alpha-bungarotoxin binding sites (alpha-Bgt-sensitive)
Test: […]-alpha-Bgt competition binding, filtration
Conditions: read-out: [^125I]-α-Bgt / Bmax (fmol/mg) / [^125I]- α-Bgt / IC50, PBS pH 7.2, 0.1% BSA, room temperature, 4 h, low-affinity site

Compound: CN/C(=N\[N+](=O)[O-])NCc1cnc(Cl)s1 [clothianidin]
- IC50 (0.08 nM [125I]-alpha-Bgt): 194 nM

Compound: CN1COCN(Cc2cnc(Cl)s2)C1=N[N+](=O)[O-] [thiamethoxam]
- IC50 (0.08 nM [125I]-alpha-Bgt): 1640 nM

Compound: O=[N+]([O-])N=C1NCCN1Cc1ccc(Cl)nc1 [imidacloprid]
- IC50 (0.6 nM [125I]-alpha-Bgt): 22300 nM

Where two headings read alike, the source gives them in different places.
